This passage reports B-score results from PubChem BioAssay AID1456 (Vanderbilt High Throughput Screening Facility, 2008).

The chains behind the UniProt entries cited, without tags or fusion partners.
UniProt Q9H2X9, whole entry: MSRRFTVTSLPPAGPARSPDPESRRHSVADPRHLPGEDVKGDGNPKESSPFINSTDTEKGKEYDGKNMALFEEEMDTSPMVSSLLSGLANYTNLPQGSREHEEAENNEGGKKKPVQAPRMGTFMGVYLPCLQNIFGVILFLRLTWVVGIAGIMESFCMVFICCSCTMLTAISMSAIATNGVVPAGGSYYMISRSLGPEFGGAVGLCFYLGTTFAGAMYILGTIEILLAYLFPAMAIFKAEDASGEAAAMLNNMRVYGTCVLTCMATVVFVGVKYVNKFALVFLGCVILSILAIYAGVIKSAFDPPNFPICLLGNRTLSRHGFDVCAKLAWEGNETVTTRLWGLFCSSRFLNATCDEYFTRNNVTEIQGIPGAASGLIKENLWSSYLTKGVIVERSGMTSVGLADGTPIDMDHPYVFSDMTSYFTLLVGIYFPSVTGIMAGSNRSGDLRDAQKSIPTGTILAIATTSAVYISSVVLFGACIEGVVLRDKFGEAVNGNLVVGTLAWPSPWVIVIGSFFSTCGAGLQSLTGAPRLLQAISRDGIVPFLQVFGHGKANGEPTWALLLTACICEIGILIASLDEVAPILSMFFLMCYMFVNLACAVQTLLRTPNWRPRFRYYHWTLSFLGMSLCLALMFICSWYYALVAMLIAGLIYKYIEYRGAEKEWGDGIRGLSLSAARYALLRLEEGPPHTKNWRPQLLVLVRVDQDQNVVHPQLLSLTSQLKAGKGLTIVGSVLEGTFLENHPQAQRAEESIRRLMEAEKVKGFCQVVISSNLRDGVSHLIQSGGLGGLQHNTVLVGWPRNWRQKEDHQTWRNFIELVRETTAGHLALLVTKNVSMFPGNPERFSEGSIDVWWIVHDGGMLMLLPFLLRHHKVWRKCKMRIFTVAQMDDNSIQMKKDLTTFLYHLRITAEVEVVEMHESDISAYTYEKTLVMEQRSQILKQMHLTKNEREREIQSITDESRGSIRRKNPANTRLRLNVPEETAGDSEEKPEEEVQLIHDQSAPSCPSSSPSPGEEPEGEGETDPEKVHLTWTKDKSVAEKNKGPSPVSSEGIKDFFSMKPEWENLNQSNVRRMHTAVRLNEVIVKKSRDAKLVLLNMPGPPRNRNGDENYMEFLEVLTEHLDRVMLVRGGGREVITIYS

Each structure is given as a SMILES string. This is a selection; strong and weak results do not stand in their true shares. Some salts or complexes appear as unconnected parts, following the source record. Activity calls are given as the source filed them.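 How the source made its calls: active means thallium flux slope and its plate-corrected score both differing from the plate sample mean at a set confidence after two filtering rounds, in either direction; inactive means the rest.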

The target of this assay is Solute carrier family 12 member 5 (Homo sapiens) (UniProt Q9H2X9). The assay is described as follows: KCC2 cotransporter modulators, thallium flux, primary screen, cell-based, HEK293 KCC2, FluoZin-2 fluorescence, MLSMR (AID 1456). Conditions: KCC2 cells, thallium flux FluoZin-2 fluorescence; at 10 µM; hits give high values.
As for `CP(=O)(Nc1ccc(SC(F)(F)F)cc1)Oc1ccc(F)cc1` (configuration not stated), the B-score is inactive: 0.884.

As for `CCOP(C)(=S)SCC(=O)NC(C)(CC)C(=O)O` (configuration not stated), the B-score was inactive: 0.677.

For the compound `CP(=O)(Nc1ccc2c(c1)OCCO2)Oc1ccccc1` (configuration not stated), the B-score is inactive: 0.832.

As to `Cc1ccccc1NP(C)(=O)Nc1ccccc1C`, the B-score is inactive: 0.707.

For the compound `COc1ccc(OP(C)(=O)Nc2cccc(Br)c2)cc1` (configuration not stated), the B-score was inactive: 0.126.

For `COc1ccc(NP(C)(=O)Oc2ccccc2OC)cc1` (configuration not stated), the B-score is inactive: -0.499.

With `CN(C)CCOC(=O)C(O)(c1ccccc1)C1CCCCC1` (configuration not stated), the B-score is inactive: -0.229.

As to `O=[N+]([O-])c1cc([N+](=O)[O-])c(NCC2CCS(=O)(=O)C2)c([N+](=O)[O-])c1` (configuration not stated), the B-score was inactive: -0.184.

Take `Cc1cc(-c2cccc3ccccc23)c(C)cn1.O=[N+]([O-])c1cc([N+](=O)[O-])c(O)c([N+](=O)[O-])c1`: the B-score was inactive: -2.92.

Turning to `O=[N+]([O-])c1ccc(OP2(=O)COCCO2)cc1` (configuration not stated), the B-score was inactive: -0.761.

Turning to `COc1ccc(OP(C)(=O)Nc2ccc(SC(F)(F)F)cc2)cc1` (configuration not stated), the B-score is inactive: -0.0607.

As to `CCOC(=O)c1ccc(NP(C)(=O)Oc2ccc(F)cc2)cc1` (configuration not stated), the B-score was inactive: 0.856.

For the compound `CCN(CC)CCCOC(=O)C(O)(c1ccccc1)C1CCCCC1` (configuration not stated), the B-score was inactive: 0.182.

Regarding `CCCCCOc1ccc(NP(C)(=O)Oc2ccc(Cl)cc2Cl)cc1` (configuration not stated), the B-score is inactive: -0.108.

Regarding `CP(=O)(Nc1ccccc1)Oc1ccc(F)cc1` (configuration not stated), the B-score is active: 3.49.

On to `CC(C)c1ccc(OP(C)(=O)Nc2ccc(SC(F)(F)F)cc2)cc1` (configuration not stated), for which the B-score was inactive: -0.118.

Take `O=C(OCCN1CCN(CCOCc2ccccc2)CC1)C(O)(c1ccccc1)c1ccccc1`: the B-score is inactive: -0.437.

Consider `O=C(OC1CN2CCC1CC2)c1ccc([N+](=O)[O-])cc1` (configuration not stated), for which the B-score was inactive: -0.0133.

With `COc1ccc2c(c1O)-c1c(O)c(OC)cc3c1[C@H](C2)[N+](C)(C)CC3.O=[N+]([O-])c1cc([N+](=O)[O-])c([O-])c([N+](=O)[O-])c1[O-]`, the B-score is inactive: -0.696.

As to `COc1ccccc1OP(C)(=O)Nc1ccc(Br)cc1` (configuration not stated), the B-score is inactive: -0.426.

Take `CN(C)CCOC(=O)C(O)(c1ccccc1)C1CCCC1` (configuration not stated): the B-score was inactive: -0.00674.

With `COc1ccc(OP(C)(=O)Nc2ccccn2)cc1` (configuration not stated), the B-score is inactive: 0.55.

For `O=[N+]([O-])c1cc([N+](=O)[O-])c(Nc2ccccn2)c([N+](=O)[O-])c1`, the B-score was inactive: -0.646.

As to `Cc1c(NP(C)(=O)Oc2ccc(C(C)C)cc2)c(=O)n(-c2ccccc2)n1C` (configuration not stated), the B-score was inactive: 0.666.

For `CCc1ccc(OP(C)(=O)O)cc1`, the B-score was inactive: -0.791.

For the compound `CP(=O)(Nc1ccccn1)Oc1ccccc1` (configuration not stated), the B-score was inactive: -0.00123.

As to `COc1ccccc1OP(C)(=O)Nc1ccc(C)cc1C` (configuration not stated), the B-score was inactive: 0.278.

As to `Cc1cc(C)cc(OP(C)(=O)Nc2cccc(C(F)(F)F)c2)c1` (configuration not stated), the B-score is inactive: 0.501.

Regarding `COc1ccc(OP(C)(=O)Nc2ccccc2Br)cc1` (configuration not stated), the B-score was inactive: 0.37.

For `COc1ccccc1OP(C)(=O)Nc1ccc(C)c(C)c1` (configuration not stated), the B-score is inactive: -0.000338.

`Cc1nc2ccc3ccccc3c2o1.O=[N+]([O-])c1cc([N+](=O)[O-])c(O)c([N+](=O)[O-])c1`: the B-score was inactive: 0.133.

For `CP(=O)(OCCOc1ccccc1)OCCOc1ccccc1`, the B-score is inactive: -0.845.

As for `CP(=O)(Nc1ccc(Cl)cc1Cl)Oc1ccccc1` (configuration not stated), the B-score was inactive: -0.262.

For the compound `CP(=O)(OC12CC3CC(CC(C3)C1)C2)OC12CC3CC(CC(C3)C1)C2`, the B-score is inactive: 0.487.

With `CCOC(=O)c1ccc(NP(C)(=O)Oc2ccc(Cl)cc2)cc1` (configuration not stated), the B-score is inactive: -0.0453.

As to `COc1ccc(OP(C)(=O)Nc2ccc(Br)cc2)cc1` (configuration not stated), the B-score is inactive: 0.185.

For the compound `CCc1ccc(OP(C)(=O)Nc2cccnc2)cc1` (configuration not stated), the B-score was inactive: -1.31.

Regarding `O=C(OCCCN1CCCC1)C(O)(c1ccccc1)C1CCCCC1` (configuration not stated), the B-score is inactive: 0.803.

For `CP(=O)(Nc1ccc(Cl)cc1)Oc1ccc(F)cc1` (configuration not stated), the B-score is inactive: 0.112.

With `CC(C)(C)c1ccc(OP(C)(=O)O)cc1`, the B-score is inactive: -1.49.

In the case of `COc1ccccc1OP(C)(=O)Nc1ccccc1Br` (configuration not stated), the B-score is inactive: -0.301.

As to `CN(C)C(=O)c1c([N+](=O)[O-])cc([N+](=O)[O-])cc1[N+](=O)[O-]`, the B-score is inactive: 1.22.

In the case of `CP(=O)(Nc1ccc(SC(F)(F)F)cc1)Oc1ccc(Cl)cc1` (configuration not stated), the B-score is inactive: -1.63.

Consider `Cc1cccc(C)c1OP(C)(=O)Nc1ccc(SC(F)(F)F)cc1` (configuration not stated), for which the B-score was inactive: -0.323.

Turning to `CP(=O)(Oc1ccccc1)OC(c1ccccc1)C(F)(F)F` (configuration not stated), the B-score was inactive: -0.164.

`CCc1ccc(OP(C)(=O)N2CCN(c3ccc([N+](=O)[O-])cc3)CC2)cc1` (configuration not stated): the B-score is inactive: -2.33.

Regarding `CP(=O)(NC(=O)Nc1ccccc1)Oc1ccccc1` (configuration not stated), the B-score is inactive: 0.445.

As to `Cc1cc(C)cc(OP(C)(=O)Nc2ccc(SC(F)(F)F)cc2)c1` (configuration not stated), the B-score is inactive: -0.584.

For the compound `CCOP(C)(=S)SCC(=O)NC(C)C(=O)O` (configuration not stated), the B-score was inactive: 0.809.

Take `CCOC(=O)c1ccc(NP(C)(=O)Oc2ccc(OC)cc2)cc1` (configuration not stated): the B-score was inactive: 0.383.

As to `CP(=O)(Nc1ccccn1)Oc1ccc(Cl)cc1` (configuration not stated), the B-score is inactive: 0.705.

Take `CP(=S)(Nn1cnnc1)Oc1ccccc1` (configuration not stated): the B-score is inactive: 0.834.

As to `CP(=O)(Nc1ccccc1Br)Oc1ccccc1` (configuration not stated), the B-score is inactive: -1.73.

Regarding `CC(C)(C)c1ccc(OP(C)(=O)Nc2ccc(SC(F)(F)F)cc2)cc1` (configuration not stated), the B-score is inactive: 1.11.

Turning to `Cc1cccc(C)c1OP(C)(N)=O` (configuration not stated), the B-score is inactive: 0.0826.

As for `O=[N+]([O-])c1ccc2c(c1)C=Nc1ccccc1O2`, the B-score was inactive: 0.144.

Consider `CCOC(=O)c1ccc(NP(C)(=O)Oc2ccccc2)cc1` (configuration not stated), for which the B-score is inactive: 0.253.

On to `COc1ccccc1OP(C)(=O)Nc1ccc(C)cc1` (configuration not stated), for which the B-score is inactive: -0.0623.

`Cc1ccc(NP(C)(=O)Oc2ccccc2)c(C)c1` (configuration not stated): the B-score was inactive: -0.019.

For `COc1ccccc1OP(C)(=O)Nc1cc(Cl)ccc1C` (configuration not stated), the B-score is inactive: -1.08.

As to `COc1ccc(OP(C)(=O)Nc2cccc(F)c2)cc1` (configuration not stated), the B-score is inactive: 0.39.

For the compound `Cc1cc(C)cc(OP(C)(N)=O)c1` (configuration not stated), the B-score was inactive: 0.866.

In the case of `COc1ccccc1OP(C)(=O)Nc1cccc(Br)c1` (configuration not stated), the B-score was inactive: -0.0194.

Turning to `Cc1cc(C)cc(OP(C)(=O)Nc2ccc(C)cc2C)c1` (configuration not stated), the B-score was inactive: -1.24.

For the compound `CCOC(=O)c1ccc(NP(C)(=O)Oc2cc(C)cc(C)c2)cc1` (configuration not stated), the B-score was inactive: -0.464.

Turning to `CP(=O)(Nc1cccc(Br)c1)Oc1ccccc1` (configuration not stated), the B-score is inactive: 0.246.

For `Cc1cc(C)cc(OP(C)(=O)Nc2ccccn2)c1` (configuration not stated), the B-score was inactive: -0.49.

For `Cc1ccc(C)c(NP(C)(=O)Oc2ccccc2)c1` (configuration not stated), the B-score is inactive: 0.35.

In the case of `CC1=NCCc2c1[nH]c1ccccc21.O=[N+]([O-])c1cc([N+](=O)[O-])c(O)c([N+](=O)[O-])c1`, the B-score is inactive: 1.77.

As to `O=[N+]([O-])c1cc([N+](=O)[O-])c(Nc2nnnn2CCO)c([N+](=O)[O-])c1`, the B-score was inactive: -0.0411.

Consider `CCOC(=O)C(CC)C1=NC(C)(C)Cc2ccccc21.O=[N+]([O-])c1cc([N+](=O)[O-])c(O)c([N+](=O)[O-])c1` (configuration not stated), for which the B-score is inactive: 0.0541.

As to `CN1CCCCC1COC(=O)C1(O)c2ccccc2CCc2ccccc21` (configuration not stated), the B-score is inactive: 1.08.

In the case of `COc1ccccc1OP(C)(=O)Nc1c(C)cccc1C` (configuration not stated), the B-score is inactive: 0.0458.

As to `CP(=O)(Nc1ccc(SC(F)(F)F)cc1)Oc1ccccc1` (configuration not stated), the B-score was inactive: 0.251.

Consider `CCCOc1ccc(NP(C)(=O)Oc2ccc(Cl)cc2)cc1` (configuration not stated), for which the B-score is inactive: -0.0569.

As to `O=[N+]([O-])c1cc([N+](=O)[O-])c(-n2nnc3ccccc32)c([N+](=O)[O-])c1`, the B-score was inactive: -0.122.

`Cc1nc2ccc3ccccc3c2s1.O=[N+]([O-])c1cc([N+](=O)[O-])c(O)c([N+](=O)[O-])c1`: the B-score was inactive: -0.219.
